Experimental findings from patent US20170107212A1, “NOVEL COMPOUNDS” (Bayer Pharma Aktiengesellschaft, priority 2014, published 2017) are described below.

Assay [1] has as its system constitutive active colorectal cancer cell (CRC) Wnt pathway, HCT116 TOPFlash. In words: Cellular reporter assay, HCT116 Super TopFlash (constitutive active Wnt pathway), luciferase expression. The assay is classed as cell-based. The conditions noted are these: read-out: HCT116 TOPFlash IC50 [mol/L]; HCT116 Super TopFlash reporter cells, 36 hours incubation, dilution series 50 μM to 15 nM. As for the experimental part:
In order to discover and characterize small molecules which inhibit the constitutive active colorectal cancer cell (CRC) Wnt pathway, a cellular reporter assay was employed. The corresponding assay cell was generated by transfection of the colorectal cancer cell line HCT116 (ATCC, #CCL-247) with the Super TopFlash vector (Morin, Science 275, 1997, 1787-1790; Molenaar et al., Cell 86 (3), 1996, 391-399). The HCT116 cell line is cultivated at 37° C. and 5% CO2 in DMEM/F-12 (Life Technologies, #11320-074), supplemented with 2 mM glutamine, 20 mM HEPES, 1.4 mM pyruvate, 0.15% Na-bicarbonate and 10% foetal bovine serum (GIBCO, #10270), this cancer cell line is pathophysiological relevant since it carries a deletion of position S45 in the β-catenin gene, leading to constitutive active Wnt signaling. […]
(§1) In preparation of the assay, the two cell lines were plated 24 hours before at 10000 cells per well of a 384 micro titre plate (MTP) in 30 μL growth medium. Selective inhibitory activity for small molecules on the mutated Wnt pathway was determined after parallel incubation of both (TOP and FOP) HCT116 reporter cell lines with a compound dilution series from 50 μM to 15 nM in steps of 3.16-fold dilutions in CAFTY buffer (130 mM NaCl, 5 mM KCl, 20 mM HEPES, 1 mM MgCl2, 5 mM NaHCO3, pH 7.4) containing 2 mM Ca^2+ and 0.01% BSA. […]

The next assay relates to HCT116 FOPFlash. In words: Control reporter assay, HCT116 FOP control vector (non-functional TCF elements), luciferase expression. In kind it is cell-based. The settings on record: read-out: HCT116 FOPFlash IC50 [mol/L]; HCT116 FOP control reporter cells, 36 hours incubation, dilution series 50 μM to 15 nM. As for the experimental part:
In a parallel approach, HCT116 cells were cotransfected with the FOP control vector and pcDNA3. The FOP vector is identical to the TOP construct, but it contains instead of functional TCF elements a randomized, non-functional sequence. For this transfection a stable transfected cell line was generated as well.
as §1, with “BSA. The compounds were thereby serially prediluted in 100% DMSO and thereafter in addition 50 fold into the CAFTY compound dilution buffer (described above). From this dilution 10 μL were added to the cells in 30 μL growth medium and incubated for 36 hours at 37° C. and 5% CO2.” for “BSA.”
In general terms: Reporter assays use an easily measured gene product as a stand-in for the process of interest.

Regarding “1-methyl-4-(2-{[5-{[5-(5-methyl-1,3-thiazol-4-yl)-1,3,4-thiadiazol-2-yl]carbamoyl}-2-(trifluoromethoxy)phenyl]amino}-2-oxoethyl)piperazin-1-ium hexafluorophosphate”, the IC50 was 1200 nM in assay [1] and not below 50000 nM with HCT116 FOPFlash.
